Columns and labels:
Melanocortin receptor 4 [1] = biological target: Melanocortin receptor 4 (Homo sapiens, UniProt P32245); test: Agonist activity at wild type human melanocortin-4 receptor expressed in HEK293 cells co-transfected with CRE/beta-galactosidase reporter gene assessed as stimulatory response after 6 hrs; assay type: functional, cell-based
Melanocortin receptor 4 [2] = biological target: Melanocortin receptor 4 (Homo sapiens, UniProt P32245, L106P); test: Agonist activity at human melanocortin-4 receptor L106P mutant expressed in HEK293 cells co-transfected with CRE/beta-galactosidase reporter gene assessed as stimulatory response after 6 hrs; assay type: functional, cell-based

Sequences of proteins named here, by UniProt entry; tags and fusion partners are left off.
UniProt P32245, whole entry: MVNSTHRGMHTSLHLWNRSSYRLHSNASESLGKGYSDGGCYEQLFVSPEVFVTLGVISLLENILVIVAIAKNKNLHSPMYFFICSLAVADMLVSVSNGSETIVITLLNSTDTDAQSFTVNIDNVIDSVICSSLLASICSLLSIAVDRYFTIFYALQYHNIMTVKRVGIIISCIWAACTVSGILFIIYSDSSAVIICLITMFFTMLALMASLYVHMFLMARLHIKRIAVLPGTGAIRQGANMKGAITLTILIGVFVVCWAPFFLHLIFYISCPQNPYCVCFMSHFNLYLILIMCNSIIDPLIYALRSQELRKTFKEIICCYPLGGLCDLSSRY
UniProt P32245, whole entry L106P: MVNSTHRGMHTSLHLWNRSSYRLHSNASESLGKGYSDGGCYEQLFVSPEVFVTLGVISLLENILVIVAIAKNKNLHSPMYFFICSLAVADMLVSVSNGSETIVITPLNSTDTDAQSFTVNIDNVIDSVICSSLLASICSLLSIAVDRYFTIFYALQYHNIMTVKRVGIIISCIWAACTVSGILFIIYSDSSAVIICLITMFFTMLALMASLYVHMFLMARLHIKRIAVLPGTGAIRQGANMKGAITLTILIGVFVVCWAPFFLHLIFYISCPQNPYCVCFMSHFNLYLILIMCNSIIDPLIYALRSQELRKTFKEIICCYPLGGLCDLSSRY

CC(=O)N[C@@H](Cc1cnc[nH]1)C(=O)N[C@H](Cc1ccccc1)C(=O)N[C@@H](CCCN=C(N)N)C(=O)N[C@@H](Cc1c[nH]c2ccccc12)C(N)=O
EC50 (Melanocortin receptor 4 [1]): 0.93 nM | EC50 (Melanocortin receptor 4 [2]): 191 nM
